Results from patent publication US20170049739A1, “PROSTACYCLIN COMPOUNDS, COMPOSITIONS AND METHODS OF USE THEREOF” (INSMED INCORPORATED, priority 2013, published 2017).

Experiments:
[1] = rat, in vivo, 6 ug/kg
Method: Body weights were recorded daily and organ weights (lungs, heart, liver) were measured 24 hr, after the last drug dose.

[2] = Treprostinil alkyl ester conversion to treprostinil in monkey lung tissue homogenate; format: in vitro ADME; conditions: 37° C., 200 nM, 10 mg/mL of protein, 4 hours
Method: (§1) Treprostinil alkyl ester conversion to treprostinil was also measured in the presence of rat, dog and monkey lung tissue homogenate at 37° C. Mere, data were calculated based on fit of exponential increase to the maximum (experiments performed in duplicate). The results of this study are provided below in Table 2A and FIG. 37. […] Both FIG. 37 experiments (left and right graphs) were performed in duplicate and the lines represent nonlinear exponential regression assuming 1 phase decay.

[3] = Treprostinil alkyl ester conversion to treprostinil in rat lung tissue homogenate; format: in vitro ADME; conditions: 37° C., 200 nM, 10 mg/mL of protein, 4 hours
Method: as §1

Row | Substance | increase in plasma AUC by day 14 [1] | Rate of treprostinil alkyl ester conversion [2] | Rate of treprostinil alkyl ester conversion [3]
1 | hexadecyl-treprostinil [C16-TR] | 3-4 fold |  | 
2 | treprostinil decyl ester [C10-TR] |  | 4.6 nmOL/h * g of protein | 7.3 nmOL/h * g of protein
